In this assay the target is LDHA (Homo sapiens, UniProt P00338). The assay can be described thus: SPR binding assay. The settings on record: read-out: off rate koff (×10^4). In general terms: Surface plasmon resonance follows binding to a sensor surface in real time, without labels.

Experimental findings from publication PMC7830743 (Journal of medicinal chemistry, 2020) are described below.

By koff is commonly meant the rate constant with which the complex falls apart.

Turning to `NS(=O)(=O)c1ccc(Cc2c(-c3ccc(F)c(C#CC4CCCC4)c3)nn(-c3nc(C(=O)O)cs3)c2CC2CC2)cc1F` [Compound 23, 2-(3-(3-(Cyclopentylethynyl)-4-fluorophenyl)-5-(cyclopropylmethyl)-4-(3-fluoro-4-sulfamoylbenzyl)-1H-pyrazol-1-yl)thiazole-4-carboxylic Acid], the koff is under 1e-06 s⁻¹.

Regarding `NS(=O)(=O)c1ccc(Cc2c(-c3ccc(F)c(C#CCC4CCCC4)c3)nn(-c3nc(C(=O)O)cs3)c2CC2CC2)cc1F` [Compound 38, 2-(3-(3-(3-Cyclopentylprop-1-yn-1-yl)-4-fluorophenyl)-5-(cyclo-propylmethyl)-4-(3-fluoro-4-sulfamoylbenzyl)-1H-pyrazol-1-yl)-thiazole-4-carboxylic Acid], the koff was under 1e-06 s⁻¹.
